Biological target: T1, human GlyT1c transporter (Homo sapiens, UniProt P48067)
T1 sequence (P48067 1-706): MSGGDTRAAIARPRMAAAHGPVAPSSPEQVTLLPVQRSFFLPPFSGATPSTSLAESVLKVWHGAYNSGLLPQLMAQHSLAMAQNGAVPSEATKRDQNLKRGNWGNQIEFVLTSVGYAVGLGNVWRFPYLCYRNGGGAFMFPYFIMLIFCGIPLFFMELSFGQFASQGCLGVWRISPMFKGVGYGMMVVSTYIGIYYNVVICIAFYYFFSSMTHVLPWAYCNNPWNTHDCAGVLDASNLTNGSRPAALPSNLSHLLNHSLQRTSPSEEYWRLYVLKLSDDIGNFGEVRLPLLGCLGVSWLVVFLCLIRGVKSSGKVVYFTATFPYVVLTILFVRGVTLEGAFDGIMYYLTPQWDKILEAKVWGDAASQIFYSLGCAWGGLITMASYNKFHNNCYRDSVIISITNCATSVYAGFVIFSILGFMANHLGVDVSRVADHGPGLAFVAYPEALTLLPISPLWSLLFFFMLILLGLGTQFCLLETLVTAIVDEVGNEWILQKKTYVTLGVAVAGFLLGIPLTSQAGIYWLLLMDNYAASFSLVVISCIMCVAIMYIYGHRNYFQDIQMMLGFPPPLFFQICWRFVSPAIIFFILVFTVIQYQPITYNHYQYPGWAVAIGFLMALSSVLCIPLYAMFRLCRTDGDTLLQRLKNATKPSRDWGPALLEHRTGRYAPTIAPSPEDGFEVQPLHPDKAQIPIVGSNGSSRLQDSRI
Experiment: Radioligand binding assays using recombinant CHO cell membranes expressing human GlyT1
Settings: radioligand binding to human GlyT1c transporter-expressing CHO cell membranes

`Cn1cnc(S(=O)(=O)N2C[C@@H](Nc3ccc(C#N)c(Cl)c3)[C@H](c3ccc(F)cc3)C2)c1` (relative stereo) [Example 341, 2-chloro-4-({trans-4-(4-fluorophenyl)-1-[(1-methyl-1H-imidazol-4-yl)sulfonyl]pyrrolidin-3-yl}amino)benzonitrile] was tested. Which Ki did it give?
Its Ki is ≤ 10 µM.

From patent publication US9650334B2 (AbbVie Deutschland GmbH & Co. KG, priority 2013, dated 2017)
